Source: patent US20250326814A1, “MODIFIED OXYNTOMODULIN AND METHODS OF USE THEREOF” (OPKO BIOLOGICS LTD., priority 2024, published 2025)

Chains of the proteins cited; added tags and fusions are not shown. Residues count along the entry.
UniProt P43220, 24-463: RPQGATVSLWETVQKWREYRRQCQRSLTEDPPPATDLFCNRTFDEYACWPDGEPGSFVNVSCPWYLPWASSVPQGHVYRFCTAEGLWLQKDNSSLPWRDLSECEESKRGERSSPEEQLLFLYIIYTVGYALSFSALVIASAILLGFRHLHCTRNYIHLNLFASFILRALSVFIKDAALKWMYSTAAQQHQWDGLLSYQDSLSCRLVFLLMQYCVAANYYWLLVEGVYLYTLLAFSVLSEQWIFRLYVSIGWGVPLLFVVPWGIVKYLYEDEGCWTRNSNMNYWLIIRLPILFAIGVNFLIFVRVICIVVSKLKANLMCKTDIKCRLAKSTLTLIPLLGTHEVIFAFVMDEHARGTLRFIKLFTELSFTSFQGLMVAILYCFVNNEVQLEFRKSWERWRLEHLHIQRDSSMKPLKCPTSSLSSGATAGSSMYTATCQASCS
UniProt P47871, 26-477: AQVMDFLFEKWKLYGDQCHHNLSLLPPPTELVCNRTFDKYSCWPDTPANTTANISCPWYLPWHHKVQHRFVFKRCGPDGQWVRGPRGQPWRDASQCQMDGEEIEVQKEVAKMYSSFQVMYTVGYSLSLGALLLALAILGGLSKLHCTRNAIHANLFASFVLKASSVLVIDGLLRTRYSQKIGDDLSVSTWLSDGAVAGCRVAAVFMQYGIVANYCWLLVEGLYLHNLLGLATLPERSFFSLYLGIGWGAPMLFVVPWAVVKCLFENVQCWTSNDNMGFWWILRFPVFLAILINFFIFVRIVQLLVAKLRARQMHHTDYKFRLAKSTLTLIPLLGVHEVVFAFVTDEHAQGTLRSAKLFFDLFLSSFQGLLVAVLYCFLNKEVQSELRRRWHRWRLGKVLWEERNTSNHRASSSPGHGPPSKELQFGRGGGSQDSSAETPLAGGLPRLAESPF

How the values were obtained:
Type in all cases: cell-based
[1] = biological target: T1, GLP1 (Homo sapiens, UniProt P43220); assay: GLP-1 activity in vitro of PEGylated and acylated OXM peptide analogs (Table 12); settings: relative to the OXM peptide
[2] = biological target: T1, GLP1; assay: CBA potency assay, GLP1 (Tables 10 and 11); settings: Table 10
[3] = biological target: T2, glucagon-like peptide-1 (GLP1) receptor (Homo sapiens, UniProt P43220); assay: GLP-1 activity EC50 of OXM analogs and GLP-1 therapeutics (Example 4, Table 9); settings: relative to the OXM analog alone
T2 construct: expressed in transfected cells; host or cells: CHO-K1

[4] = biological target: GCGR (Homo sapiens, UniProt P47871); assay: Glucagon activity in vitro of PEGylated and acylated OXM peptide analogs (Table 12)
Protocol: The potential benefits of novel acylated OXM products relative to the PEGylated OXM peptide were evaluated for GLP-1 and Glucagon activity in vitro, molecular weight, dosing, and efficacy in a DIO Mouse model.
Novel and acylated long-acting OXM peptide analogs were synthesized and identified with targeted GLP-1 and Glucagon activities. The potency of the acylated OXM peptides was compared with the native OXM peptide alone and Pegylated OXM peptide to evaluate the impact of acylation on GLP-1 and Glucagon activities.

“OPK-88003 API: SEQ ID NO: 3 where Xaa38=Cys-PEG20 and Xaa39=Cys-PEG20” was tested, and the “decrease of GLP-1 activity by PEGylation” value [1] was 10-15 fold, the “% EC50 compare to KPI (GLP1)” value [2] was 10.8% and the “inhibition of GLP-1 activity by PEGylation” value [3] was “over 20 fold”. The EC50 ([4]; Table 12) was 16.8 nM and the “decrease of glucagon activity by PEGylation” value ([4]; relative to the OXM peptide) was “over 20 fold”.
